Assay results from patent publication US5637617A, “Methods for use of GABAa receptor GABAergic compounds” (The Regents of the University of California, priority 1994, dated 1997).

How the values were obtained:
[1] = tested on: rat cerebral cortex GABAA receptors expressed in oocytes; conditions: for inhibitory effects on maximum IG-Actx: drug applied at 100 μM; for reduction of maximum IG-Actx / inhibition of maximum / high-GABA responses: Example VIII; for reduction of maximum IG-Actx: drug 100 μM; for IC50 potency compared with fenamates: maximum IG-Actx
[2] = tested on: rat cerebral cortex GABAA receptors expressed in oocytes; experiment: Effects on complete GABA concentration-response curves for IG-Actx; type: cell-based; conditions: for facilitatory effects over complete GABA concentration-response curves / inhibitory effects over complete GABA concentration-response curves: FIG. 5

CCCCC1C(=O)N(c2ccccc2)N(c2ccccc2)C1=O [Phenylbutazone]
inhibitory effects on maximum IG-Actx [1]: weak or marginal effects

CC(C(=O)O)c1ccc(-c2ccccc2)c(F)c1 (centres unmarked) [Flurbiprofen]
inhibitory effects on maximum IG-Actx [1]: weak or marginal effects

O=C(O)Cc1ccccc1Nc1c(Cl)cccc1Cl [Diclofenac]
inhibitory effects on maximum IG-Actx [1]: weak or marginal effects

O=C(O)c1ccccc1Nc1ccccc1 [PAA, N-phenyl-anthranilic acid]
reduction of maximum IG-Actx [1]: 35-45%

Nc1ccccc1 [aniline]
inhibition of maximum / high-GABA responses [1]: inactive as inhibitors

O=C(O)c1cc(-c2ccc(F)cc2F)ccc1O [Diflunisal, diflunisal]
inhibitory effects on maximum IG-Actx [1]: pronounced inhibition | IC50 potency compared with fenamates [1]: slightly less potent than flufenamic and meclofenamic acids

Cc1ccccc1Nc1ccccc1C(=O)O [TAA, N-(O-tolyl) anthranilic acid]
inhibition of maximum / high-GABA responses [1]: weakly inhibited maximum GABA responses | reduction of maximum IG-Actx [1]: approximately 35%

CC1=C(CC(=O)O)c2cc(F)ccc2/C1=C\c1ccc([S+](C)[O-])cc1 (centres unmarked) [Sulindac]
inhibitory effects on maximum IG-Actx [1]: weak or marginal effects

O=C(O)c1ccccc1Nc1cccc(C(F)(F)F)c1 [Flufenamic acid]
facilitatory effects over complete GABA concentration-response curves [2]: intermediate activities | inhibitory effects over complete GABA concentration-response curves [2]: intermediate activities

O=C(O)c1cccnc1Nc1cccc(C(F)(F)F)c1 [Niflumic acid]
reduction in maximum current / maximum responses ([2]; 10 μM drug): 54 ±1% | shift of GABA concentration-response curve ([2]; 10 μM drug): no clear leftward shifts in concentration-response curves | GABA concentrations at which drug had net inhibitory effects ([2]; 10 μM drug, FIG. 5B): > 20 µM | facilitatory effects over complete GABA concentration-response curves [2]: weakest facilitatory effects | inhibitory effects over complete GABA concentration-response curves [2]: strongest inhibitor | surmountability of inhibition of IG-Actx ([2]; GABA increased from 3 to 30 mM, 10 or 100 μM niflumic acid): little change in the level of inhibition

Cc1cccc(Nc2ccccc2C(=O)O)c1C [Mefenamic acid]
shift of GABA concentration-response curve ([2]; 1 μM drug): shifted the concentration-response curve without reductions in slope or maximum response | reduction in maximum current / maximum responses ([2]; 10 μM drug): 28±8% | GABA concentration at transition between net facilitatory and inhibitory effects ([2]; 10 μM drug, FIG. 5A): approximately 100 μM | GABA concentrations at which drug had net inhibitory effects ([2]; 100 μM drug): > 20 µM | GABA response threshold in presence of drug ([2]; 100 μM drug, threshold without drug ≈1 μM GABA): ≥ 50 nM | facilitatory effects over complete GABA concentration-response curves [2]: highest efficacy in terms of facilitatory effects | inhibitory effects over complete GABA concentration-response curves [2]: weakest inhibitor

Nc1ccccc1C(=O)O [anthranilic acid]
inhibition of maximum / high-GABA responses [1]: inactive as inhibitors

O=C(O)c1ccccc1Nc1cccc([N+](=O)[O-])c1 [NPAA, N-(3-nitrophenyl) anthranilic acid]
inhibition of maximum / high-GABA responses [1]: inhibitory effects on currents elicited by high concentrations of GABA | reduction of maximum IG-Actx [1]: 60±11%

Cc1ccc(Cl)c(Nc2ccccc2C(=O)O)c1Cl [Meclofenamate, Meclofenamic acid]
facilitatory effects over complete GABA concentration-response curves [2]: intermediate activities | inhibitory effects over complete GABA concentration-response curves [2]: intermediate activities

COc1ccc2c(c1)c(CC(=O)O)c(C)n2C(=O)c1ccc(Cl)cc1 [Indomethacin]
inhibitory effects on maximum IG-Actx [1]: pronounced inhibition | IC50 potency compared with fenamates [1]: roughly half the potency of mefenamic acid
